## Experimental properties from OPERA 2.9

Source: data files of OPERA 2.9 (Mansouri et al.), github.com/kmansouri/OPERA.

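OPERA's authors assembled the values from existing databases and did not measure them anew. The files give a single number for a compound and property, which may rest on several reports. Conditions of the individual experiments are not part of the data. The measured form (salt, isomer or mixture) is not always the one drawn. Some upstream entries may be estimates or bounds without being marked so.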

Melting points are in °C.
Boiling points are in °C, nominally at 760 mmHg.
The octanol-water partition coefficient is given as log10; larger values mean a more lipophilic compound.
Water solubility is log10 of mol/L, nominally at 25 °C; higher is more soluble.
Vapor pressures (log10 mmHg) refer to near room temperature, 15 to 30 °C; higher is more volatile.
Henry's law constant (air-water partitioning) is log10 of atm·m3/mol, nominally at 25 °C.
The unbound fraction in human plasma runs from 0 (all bound) to 1 (all free).
Intrinsic clearance (human, µL/min per 10^6 hepatocytes): higher is faster turnover, and 0 stands for none detected.
"n/a" marks a cell with nothing listed here.

structure (SMILES),melting point (°C),bp (°C),logP,water solubility (log10 mol/L),log VP (log10 mmHg),Henry's law constant (log10 atm·m3/mol),plasma fu,Clint (µL/min/10^6 cells)
CCOc1ccc(C(C)(C)COCc2cccc(Oc3ccccc3)c2)cc1,n/a,n/a,n/a,n/a,-8.215,-6.872,n/a,n/a
O=S(=O)(Cl)c1ccccc1,n/a,n/a,3.39,-1.885,n/a,n/a,n/a,n/a
CC(C)N(C(=O)COc1nnc(C(F)(F)F)s1)c1ccc(F)cc1,n/a,n/a,n/a,n/a,n/a,n/a,0.1376,29
C[C@]12C[C@H]3O[C@H]3C[C@@H]1CC[C@@H]1[C@@H]2CC[C@]2(C)[C@@H](O)[C@@H](N3CCCC3)C[C@@H]12,129.5,n/a,2.9,n/a,n/a,n/a,n/a,n/a
O=C(O)C1C2CCC(O2)C1C(=O)O (stereo not drawn),n/a,n/a,n/a,n/a,n/a,n/a,0.867,0
COc1cnc(OC)n2nc(NS(=O)(=O)c3c(OCC(F)F)cccc3C(F)(F)F)nc12,n/a,n/a,-0.354,-3.07,n/a,n/a,0.01002,0
CC12CCC(CC1)C(C)(C)[N+]([O-])=[N+]2[O-],136,n/a,-1.258,n/a,0.785,n/a,n/a,n/a
CNC(=O)ON=C(SC)C(=O)N(C)C,n/a,n/a,n/a,n/a,n/a,n/a,0.7924,0
CC(=O)C1CCOC1=O (stereo not drawn),-13.8,n/a,n/a,n/a,-2.487,n/a,n/a,n/a
C=CCC1(C(C)CCC)C(=O)NC(=O)NC1=O (stereo not drawn),n/a,n/a,n/a,-2.276,n/a,n/a,0.5,n/a
C[C@]12C=CC(=O)C=C1CC[C@@H]1[C@@H]2CC[C@]2(C)OC(=O)CC[C@@H]12,n/a,n/a,3.7,-4.078,n/a,n/a,0.15,n/a
CCCNP(N)(N)=S,91.2,n/a,n/a,n/a,-5.862,n/a,n/a,n/a
Clc1cccc(Cl)c1-c1c(Cl)cccc1Cl,198,n/a,n/a,n/a,-3.021,n/a,n/a,n/a
C=CC(=O)OCCCCOC(=O)C=C,n/a,n/a,1.9,n/a,-2.36,n/a,n/a,n/a
S=c1[nH]c2ccccc2[nH]1,n/a,n/a,n/a,n/a,n/a,n/a,0.4,0
FC(F)(Cl)Cl,n/a,n/a,n/a,n/a,n/a,n/a,0.7731,0.05
CCC(C)C1(CC)C(=O)NC(=O)NC1=O (stereo not drawn),n/a,n/a,n/a,-2.232,n/a,n/a,0.74,n/a
C[C@H]1CC[C@@H]2[C@@H](C)[C@H]3[C@H](C[C@H]4[C@@H]5CC=C6C[C@@H](O[C@@H]7O[C@H](CO)[C@H](O)[C@H](O[C@@H]8O[C@H](CO)[C@@H](O)[C@H](O)[C@H]8O)[C@H]7O[C@@H]7O[C@@H](C)[C@H](O)[C@@H](O)[C@H]7O)CC[C@]6(C)[C@H]5CC[C@]34C)N2C1,286,n/a,n/a,-4.541,n/a,n/a,n/a,n/a
C=C(C)C(=O)OCCCCOC(=O)C(=C)C,n/a,n/a,3.1,-2.969,n/a,n/a,n/a,n/a
CN(C)c1nc(=O)n(C2CCCCC2)c(=O)n1C,n/a,n/a,n/a,n/a,n/a,n/a,0.6125,6.36
OCC1CN2CCN1CC2 (stereo not drawn),44,280,n/a,n/a,-2.034,n/a,n/a,n/a
C(COCC1CO1)OCC1CO1 (stereo not drawn),n/a,n/a,-0.654,n/a,-0.984,n/a,n/a,n/a
CCCCCCCCCCCCCCOC(=O)Cl,4,n/a,n/a,n/a,-4.129,n/a,n/a,n/a
CC(C)CCC(C)Nc1ccc(NC(C)CCC(C)C)cc1 (stereo not drawn),-36.11,n/a,5.34,n/a,-5.949,n/a,n/a,n/a
O=[N+]([O-])c1ccc(CBr)cc1,n/a,n/a,n/a,-3.474,-3.01,n/a,n/a,n/a
CCNc1nc(Cl)nc(NC(C)(C)C#N)n1,n/a,n/a,n/a,n/a,n/a,n/a,0.3166,3.16
CC(Cl)C(=O)O (stereo not drawn),n/a,n/a,0.775,n/a,0.057,n/a,n/a,n/a
CC(c1ccc(C(F)(F)F)nc1)S(C)(=O)=NC#N (stereo not drawn),112,n/a,0.802,n/a,-7.721,n/a,n/a,n/a
OC(c1ccc(Cl)cc1)(c1ccc(Cl)cc1)C(Cl)(Cl)Cl,n/a,370,n/a,n/a,n/a,n/a,n/a,27.8
Cc1ccc(-c2c(Cl)nc(C#N)n2S(=O)(=O)N(C)C)cc1,n/a,n/a,n/a,-6.45,n/a,n/a,0.051,10
CCCCCCCCOC(=O)c1ccc(C(=O)OCCCCCCCC)c(C(=O)OCCCCCCCC)c1,-57,343,5.5,n/a,n/a,n/a,n/a,n/a

2 of these entries, quoted again:

structure (SMILES),melting point (°C),bp (°C),logP,water solubility (log10 mol/L),log VP (log10 mmHg),Henry's law constant (log10 atm·m3/mol),plasma fu,Clint (µL/min/10^6 cells)
C=CC(=O)OCCCCOC(=O)C=C,n/a,n/a,1.9,n/a,-2.36,n/a,n/a,n/a
C=C(C)C(=O)OCCCCOC(=O)C(=C)C,n/a,n/a,3.1,-2.969,n/a,n/a,n/a,n/a